Bioassay records deposited in PubChem by ICCB-Longwood Screening Facility, Harvard Medical School.
GIV Gai3 FP – inhibitors of GIV peptide binding to Galpha-i3, primary screen, biochemical, fluorescence polarization, FITC-GIV GBA peptide, rat Galphai3 | 90 min; hits give low values; scaled: aluminum fluoride 0%, vehicle 100% | percent of control (FP), % (concentration not given with the values) | 210,000 compounds, 0.42% hits | AID 1224905, 2016;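 active = replicate mean at 85% of control or lower, very high polarization wells dropped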;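 also: wells of about 15 µL received 100 nL stock; the first replicate is given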
HCMV UL50-53 inh – inhibitors of HCMV UL50-UL53 nuclear egress complex interaction. HTRF UL50-UL53 interaction, normalized percent inhibition. inhibition, % (concentration not given with the values). 190,000 tested, 0.15% active; in the data active means inhibition above about 27%, passing the limit was not always enough
GIV-Gai FP conf – confirmation of inhibitors of GIV binding to rat Galpha-i3; shares compounds with GIV Gai3 FP; FITC-GIV peptide binding to Galphai3, fluorescence polarization; active compounds read low; fluorescence polarization, mP at 100 µM; 580 tested, 38% active;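 active means inhibition score of 15 or more, meaning 100 minus mean polarization as percent of control over three replicates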;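 further: lower mP means peptide displaced from Galphai3 so more inhibition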
GIV Gai AS conf – GIV-Galpha-i3 inhibition, AlphaScreen confirmation | shares compounds with GIV Gai3 FP | AID 1259351 | AlphaScreen Galphai3-GIV binding, purified proteins, 90 min; active compounds read low | 580 tested, 39% active | AlphaScreen counts at 100 µM;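 active means inhibition score at or above a set limit, where the score is 100 minus the three-replicate mean percent of control signal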
Of the large screens only hits and unclear results are named; the others gave an inactive call (follow-up assays come after a bar, where they were run). Most compounds without a hit are left out; they make up all but 0.46% or so of the library.

Cc1[nH]c2ccccc2c1/C=C/c1nc2ccccc2c(=O)n1-c1ccccc1	GIV Gai3 FP -70
Cc1ccccc1-n1c(/C=C/c2c(C)[nH]c3ccccc23)nc2ccccc2c1=O	none
Cc1c(C#N)c2nc3ccccc3n2c(=O)/c1=C\Nc1ccc(N2CCOCC2)c(Cl)c1	GIV Gai3 FP 57 (no result: HCMV UL50-53 inh)
Cc1cc(Nc2ccc(N3CCCC3)cc2)n2c(nc3ccccc32)c1C#N	none
CC1(C)CC(=O)C(C2(O)C(=O)NC(=O)NC2=O)=C(O)C1	HCMV UL50-53 inh 63
CN1CCc2[nH]c(=S)c(C#N)c(-c3cccs3)c2C1	none
O=C(Cc1ccc(F)cc1)N1CCN(Cc2noc(-c3ccccc3)n2)CC1	none (no result: HCMV UL50-53 inh)
COc1ccc(CN2C(=O)NC(=O)/C(=C\c3cccc(OC)c3OC)C2=O)cc1	HCMV UL50-53 inh 78
COc1ccc(-n2c(C)cc(/C=C3/C(=O)NC(=O)N(Cc4ccco4)C3=O)c2C)cc1	none
OC(CNCCC1=CCCCC1)c1ccccc1 (configuration not stated)	none (no result: GIV Gai3 FP)
CN1/C(=C\C=C2C(=O)NC(=O)NC2=O)C(C)(C)c2ccccc21	GIV Gai3 FP 29
COc1cccc(C=C2C(=O)NC(=O)NC2=O)c1	none (no result: GIV Gai3 FP)
NCCc1ccco1	none (no result: GIV Gai3 FP)
COc1cc(C=C2C(=O)NC(=O)NC2=O)ccc1OCc1ccc(C(=O)O)cc1	none
O=C1NC(=O)C(=Cc2ccc(OCc3ccc(C(=O)O)cc3)c(Br)c2)C(=O)N1	HCMV UL50-53 inh 63
N#CC(C#N)=NNc1ccccc1	none (no result: GIV Gai3 FP)
CN1C(=O)C(=Cc2coc3ccccc3c2=O)C(=O)N(C)C1=O	HCMV UL50-53 inh 39
CC(c1ccccc1)N1C(=O)NC(=O)/C(=C/c2coc3ccccc3c2=O)C1=O (configuration not stated)	none (no result: HCMV UL50-53 inh)
O=c1c2ccccc2[nH]c(=S)n1-c1ncn[nH]1	none (no result: GIV Gai3 FP)
CC12CC[C@H]3[C@@H](CCC4(O)C[C@H](O)CCC34/C=N/NC(=O)c3ccc([N+](=O)[O-])cc3Cl)C1(O)CCC2C1=CC(=O)OC1 (some centres not stated)	none (no result: HCMV UL50-53 inh)
Cc1[nH]c2ccccc2c1CCNCc1ccco1	none (no result: GIV Gai3 FP)
CCCCc1ncc(CNCCc2c(C)[nH]c3ccc(OC)cc23)[nH]1	GIV Gai3 FP 21
Cc1nn(-c2ccccc2)c2c1C(c1ccc(Br)cc1)SCC(=O)N2 (configuration not stated)	none
Cc1ccc(NC(=O)c2c(O)c3ccccc3n(CCC(C)C)c2=O)c(Br)c1	none (no result: HCMV UL50-53 inh)
CN1C(=O)NC(=O)/C(=C\C=C\c2ccco2)C1=O	none (no result: HCMV UL50-53 inh)
O=C1NC(=S)NC(=O)C1=C/C=C/c1ccco1	HCMV UL50-53 inh 78
Cc1ccc(N2C(=O)NC(=O)/C(=C\c3cc(C)n(-c4cc(C(=O)O)cc(C(=O)O)c4)c3C)C2=O)cc1	HCMV UL50-53 inh 32
Cc1cc(/C=C2\C(=O)NC(=O)N(c3ccc(F)cc3)C2=O)c(C)n1-c1ccc(C(=O)O)cc1	none
O=C1NC(=O)C(=Cc2ccc(OCCOc3ccc([N+](=O)[O-])cc3)cc2)C(=O)N1	none
O=C1NC(=O)C(=Cc2cccc(OCCOc3ccc([N+](=O)[O-])cc3)c2)C(=O)N1	HCMV UL50-53 inh 37
O=C(OC1N=C(c2ccccc2Cl)c2cc(Br)ccc2NC1=O)c1cccnc1 (configuration not stated)	none (no result: HCMV UL50-53 inh)
CN=C(NS(=O)(=O)c1ccc(Cl)cc1)N1C[C@@H](c2ccccc2)C(c2ccc(Cl)cc2)=N1	none (no result: GIV Gai3 FP)
CCN(CC)P(=S)(N(CC)CC)N(CC)CC	none
CCS(=O)(=O)Nc1cccc(C(=C2CCCCC2)c2cnc[nH]2)c1	none | GIV-Gai FP conf inactive | GIV Gai AS conf 6784
COCCNC(=O)Cn1cc(C=C2C(=O)N(C)C(=O)N(C)C2=O)c2ccccc21	none | GIV-Gai FP conf inactive | GIV Gai AS conf inactive
CN1C(=O)C(=Cc2cn(CC(=O)N3CCCC3)c3ccccc23)C(=O)N(C)C1=O	none (no result: HCMV UL50-53 inh)
Cc1cccc([C@H]2N(c3ccccn3)C(=O)[C@@H]3CCCN32)c1	none
c1ccc2c(NC3=NCCS3)cccc2c1	GIV Gai3 FP 83 | GIV-Gai FP conf inactive | GIV Gai AS conf 35407
Cc1ccccc1NC1=NCCS1	none (no result: GIV Gai3 FP)
NCCc1cccc(Cl)c1	none (no result: GIV Gai3 FP)
C=CCN1C(=O)NC(=O)/C(=C/C=C/c2ccccc2)C1=O	none
CN1C(=O)C(=C/C=C/c2ccccc2)C(=O)N(C)C1=O	GIV Gai3 FP 81 | GIV-Gai FP conf inactive | GIV Gai AS conf 6725
O=C(O)[C@@H]1C[C@@H]2CCCC[C@@H]2N1	none (no result: GIV Gai3 FP)
Cc1nc(S(=O)(=O)N2CCCCC2c2cccnc2)cn1C (configuration not stated)	GIV Gai3 FP 85 | GIV-Gai FP conf inactive | GIV Gai AS conf inactive
Nc1ccc(S(=O)(=O)N2CCCCC2c2cccnc2)cc1 (configuration not stated)	none
